Results published in ChEMBL document CHEMBL1799913, “A combined spectroscopic and crystallographic approach to probing drug-human serum albumin interactions” (Bioorg Med Chem, 2010).

By UniProt entry, the sequences of proteins in these tests, tags left out.
UniProt P02768, whole entry: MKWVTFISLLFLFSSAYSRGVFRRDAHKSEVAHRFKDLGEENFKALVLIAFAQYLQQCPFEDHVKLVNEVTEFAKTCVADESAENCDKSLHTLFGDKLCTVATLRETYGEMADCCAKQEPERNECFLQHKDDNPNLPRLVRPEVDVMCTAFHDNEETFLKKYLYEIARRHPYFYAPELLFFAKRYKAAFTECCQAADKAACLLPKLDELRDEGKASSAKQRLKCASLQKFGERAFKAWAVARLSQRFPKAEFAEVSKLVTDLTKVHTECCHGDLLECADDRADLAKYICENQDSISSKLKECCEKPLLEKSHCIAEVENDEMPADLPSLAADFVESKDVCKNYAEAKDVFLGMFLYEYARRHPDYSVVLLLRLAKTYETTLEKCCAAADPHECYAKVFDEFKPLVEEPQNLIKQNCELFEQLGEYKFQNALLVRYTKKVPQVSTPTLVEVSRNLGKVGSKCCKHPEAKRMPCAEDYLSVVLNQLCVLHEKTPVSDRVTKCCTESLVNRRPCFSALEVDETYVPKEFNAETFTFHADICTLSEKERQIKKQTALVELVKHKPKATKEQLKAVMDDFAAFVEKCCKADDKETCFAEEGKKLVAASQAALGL

Target: Albumin (Homo sapiens, UniProt P02768)
Assay: Binding affinity to human serum albumin by equilibrium dialysis
Format: ADME
Details: isolated protein

Structure (SMILES): O=C1NC(=O)C(c2ccccc2)(c2ccccc2)N1 [PHENYTOIN]
- log Ks: 4.09
